This passage reports Kd and IC50 results from EP4361157A1, “FUSED TETRACYCLIC COMPOUND, PREPARATION METHOD THEREFOR AND APPLICATION THEREOF IN MEDICINE” (Jiangsu Hengrui Pharmaceuticals Co., Ltd., priority 2021, dated 2022).

By UniProt entry, the sequences of proteins in these tests, tags left out. Where a name states a change or a piece, a line headed by the entry shows the natural chain unless it says otherwise.
UniProt P01116, whole entry: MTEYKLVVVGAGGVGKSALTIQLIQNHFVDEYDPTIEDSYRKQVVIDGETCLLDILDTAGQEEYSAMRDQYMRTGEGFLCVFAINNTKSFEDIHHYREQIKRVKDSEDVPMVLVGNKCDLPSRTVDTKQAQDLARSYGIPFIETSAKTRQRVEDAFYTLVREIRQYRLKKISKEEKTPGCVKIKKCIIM
UniProt P01116, whole entry G12D: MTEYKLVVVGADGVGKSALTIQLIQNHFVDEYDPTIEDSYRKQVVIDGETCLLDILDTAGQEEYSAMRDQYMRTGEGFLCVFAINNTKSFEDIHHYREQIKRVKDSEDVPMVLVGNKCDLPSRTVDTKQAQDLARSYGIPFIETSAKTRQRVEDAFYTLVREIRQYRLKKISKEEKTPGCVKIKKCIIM

Assay [1] addresses Avi-KRAS-WT (Homo sapiens, UniProt P01116). Description: SPR affinity for KRAS protein subtype WT (Biacore 8K). Conditions: read-out: WT KD (unit mol/L), single-cycle kinetic mode, 1:1 model, biotinylated Avi-KRAS-WT. The protocol: (§1) Biotinylated Avi-KRAS-WT or Avi-KRAS-G12D was diluted to 20 µg/mL with 1 × HBS-P+ (Cat. # BR1006-71) buffer containing 100 mM MgCl2, and then flowed through SA (Cat. # BR1005-31) biosensing chip channel 2 for 420 s to obtain a coupling level of approximately 5000-7000 RU. Then samples of small molecular compounds were injected for 120 s in an ascending order, and then were dissociated for 720 s. The experiment employed a single-cycle kinetic mode. Reaction signals were detected in real time using a Biacore 8K instrument to obtain association and dissociation curves. After the experiment ended, data analysis was performed using Biacore 8K evaluation software, and affinity data were obtained by performing data fitting using a 1:1 model. Table 3. Affinity data of compounds for KRAS protein subtype G12D or WT
A general note: SPR reads the build-up and loss of mass on a sensor chip optically.

In assay [2] the target is Avi-KRAS-G12D (Homo sapiens, UniProt P01116, G12D). Briefly: SPR affinity for KRAS protein subtype G12D (Biacore 8K). Conditions: read-out: G12D KD (unit mol/L), single-cycle kinetic mode, 1:1 model, biotinylated Avi-KRAS-G12D. The protocol: as §1
Assay [3] concerns GP2d cells. Description: Inhibition of 3D proliferation of GP2d cells (CellTiter-Glo 3D). Conditions: read-out: GP2d /IC50, 120 h incubation. The protocol: GP2d cells (Nanjing Cobioer, CBP60010) were cultured in a complete medium, namely DMEM/high glucose medium (Hyclone, SH30243.01) containing 10% fetal bovine serum (Corning, 35-076-CV). On the first day of the experiment, GP2d cells were seeded into a 96-well low adsorption plate (Corning, CLS7007-24EA) with complete medium at a density of 1,000 cells/well to form 90 µL of cell suspension per well. The plate was centrifuged at 2,000 rpm for 5 min at room temperature and then incubated overnight in a cell incubator at 37 °C with 5% CO2.
(§2) The next day, 10 µL of serially-diluted test compound prepared from the complete medium was added to each well. The final concentrations of the compound of GP2d cells were 9 concentration points obtained by 3-fold serial dilution from 1 µM, and the final concentrations of the compound of AGS cells were 9 concentration points obtained by 3-fold serial dilution from 10 µM. A blank control containing 0.5% DMSO was set. […] On the seventh day, the 96-well cell culture plate was taken out, 50 µL CellTiter-Glo® 3D reagent (Promega, G9682) was added into each well, the plate was shaken at room temperature for 25 min, pipetted and mixed well, 50 µL of the solution was transferred into a white impermeable 96-well plate (PE, 6005290), and the luminescence signal values were read using a multifunctional microplate reader (PerkinElmer, ENVISION). […]
In general terms: ATP-based viability assays read luminescence as a measure of living cells.

The test system of assay [4] is AGS cells. Description: Inhibition of ERK phosphorylation of AGS cells (HTRF method). Conditions: read-out: AGS/IC50, phosphorylated ERK/total ERK ratio, 1 h incubation. The protocol: AGS cells (Nanjing Cobioer, CBP60476) were cultured in RPMI1640 (Hyclone, SH30809.01) complete medium containing 10% fetal bovine serum. On the first day of the experiment, the AGS cells were seeded into a 96-well plate with complete medium at a density of 40,000 cells/well to form 190 µL of cell suspension per well. The plate was incubated overnight in a cell incubator at 37 °C with 5% CO2.
The next day, 10 µL of serially-diluted test compound prepared from the complete medium was added to each well. The final concentrations of the compound were 9 concentration points obtained by 5-fold serial dilution from 10 µM. A blank control containing 0.5% DMSO was set. The well plate was incubated in a cell incubator at 37 °C with 5% CO2 for 1 h. After completion of incubation, the 96-well cell culture plate was taken out, the medium was removed by pipetting, 200 µL PBS (Shanghai BasalMedia Technologies Co., Ltd., B320) was added to each well, and the cells were washed once. […] On the third day, the fluorescence values at an excitation wavelength of 337 nm and at emission wavelengths of 665 nm and 620 nm were read using an ENVISION multifunctional microplate reader (PerkinElmer, ENVISION). […]
A general note: TR-FRET usually uses a lanthanide donor and a delayed reading to cut background.

Assay [5] relates to AGS cells. Briefly: Inhibition of 3D proliferation of AGS cells (CellTiter-Glo 3D). Conditions: read-out: AGS /IC50, 120 h incubation. The protocol: AGS cells (Nanjing Cobioer, CBP60476) were cultured in a complete medium, namely RPMI1640 medium (Hyclone, SH30809.01) containing 10% fetal bovine serum (Corning, 35-076-CV). On the first day of the experiment, the AGS cells were seeded into a 96-well low adsorption plate (Corning, CLS7007-24EA) at a density of 1,000 cells/well using complete medium to form 90 µL of cell suspension per well. The plate was centrifuged at 2,000rpm for 5 min at room temperature and then incubated overnight in a cell incubator at 37 °C with 5% CO2.
as §2

pIC50, pKd: −log10 of the molar value.

Take `CCc1cccc2cc(O)cc(-c3nc4c5c(nc(OC[C@@]67CCCN6C[C@H](F)C7)nc5c3F)N3CC5CCC(N5)C3CO4)c12` (some centres unmarked): the figures for the pKd in assay [1] and in assay [2] were 8.12 and 9.52, respectively. Further, the pIC50 is 8.36 in assay [3], 8.96 in assay [4] and 7.59 in assay [5].
